The values below come from patent publication US20040220260A1, “Use of mono-or di-esters of cinnamic acid or of one of its derivatives and vitamin C, as donor of NO” (L'OREAL S.A., priority 2003, published 2004).

Protein sequences, listed by entry. Tags and fused reporters are not part of them.
UniProt P35228, whole entry: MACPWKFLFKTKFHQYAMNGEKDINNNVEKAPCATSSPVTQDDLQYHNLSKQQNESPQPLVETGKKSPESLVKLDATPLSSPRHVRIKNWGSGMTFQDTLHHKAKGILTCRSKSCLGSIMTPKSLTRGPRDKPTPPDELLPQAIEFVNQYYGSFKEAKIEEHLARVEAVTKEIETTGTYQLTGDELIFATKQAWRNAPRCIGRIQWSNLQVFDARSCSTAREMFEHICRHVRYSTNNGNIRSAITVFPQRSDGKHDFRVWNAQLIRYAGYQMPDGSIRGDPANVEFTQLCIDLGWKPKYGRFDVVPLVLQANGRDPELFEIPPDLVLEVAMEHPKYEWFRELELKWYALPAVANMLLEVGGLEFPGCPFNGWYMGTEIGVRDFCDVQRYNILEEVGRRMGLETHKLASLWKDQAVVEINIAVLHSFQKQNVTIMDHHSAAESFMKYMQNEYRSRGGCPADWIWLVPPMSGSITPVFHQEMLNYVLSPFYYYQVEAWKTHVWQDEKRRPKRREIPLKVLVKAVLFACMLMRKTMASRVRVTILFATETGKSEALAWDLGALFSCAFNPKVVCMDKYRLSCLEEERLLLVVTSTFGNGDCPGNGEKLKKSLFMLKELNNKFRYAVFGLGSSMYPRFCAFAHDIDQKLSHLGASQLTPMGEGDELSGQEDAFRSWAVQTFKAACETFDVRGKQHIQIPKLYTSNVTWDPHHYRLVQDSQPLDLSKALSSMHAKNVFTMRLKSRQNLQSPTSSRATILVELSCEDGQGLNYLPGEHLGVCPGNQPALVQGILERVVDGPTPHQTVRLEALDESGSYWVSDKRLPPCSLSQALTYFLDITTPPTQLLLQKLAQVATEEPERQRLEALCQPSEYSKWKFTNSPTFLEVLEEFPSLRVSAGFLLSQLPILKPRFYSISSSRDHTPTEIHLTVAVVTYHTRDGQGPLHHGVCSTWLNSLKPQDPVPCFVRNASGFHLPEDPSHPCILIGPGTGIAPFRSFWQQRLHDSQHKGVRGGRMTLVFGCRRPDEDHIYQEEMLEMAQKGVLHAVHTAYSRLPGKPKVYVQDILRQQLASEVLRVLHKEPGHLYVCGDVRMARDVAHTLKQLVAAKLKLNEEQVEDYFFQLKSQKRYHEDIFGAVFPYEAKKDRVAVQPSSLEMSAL

Usually % inhibition stands for the percentage by which the read-out fell short of the control.

In the test the target is T1, inducible NO synthase (NOS2) (Homo sapiens, UniProt P35228).
T1 construct: endogenous in cells; host or cells: normal human keratinocytes (primary culture), induced with interferon-γ and interleukin 1-β
The test is described as follows: screening test of the modulation of induction of NOS2 by normal human keratinocytes (nitrite/nitrate measurement). The class given is cell-based. The note with it: control compounds at 200 μm, NOS2 induced by cytokines. Here is the method: The activity of ascorbyl 2-O-cinnamate on the inducible NO synthase was evaluated in the assay described by Heck et al. (J.B.C., vol. 267, No. 30, 21277-21280, 25 Oct. 1992), a screening test of the modulation of induction of NOS2 by normal human keratinocytes. The objective of this test is, briefly, to evaluate the concentration of nitrate and nitrite after stimulation of the NO-synthase 2.
The test is carried out on a culture of normal human keratinocytes, derived from samples taken. The induction of the inducible NO synthase (NOS2) was caused by the addition of a combination of several cytokines to the culture medium. The product tested was applied at three concentrations varying from […] to 1000 μM.
The product tested was classed in one of the following two categories: inhibitor (I) or donor (D) of NO (nitric oxide) according to its capacity to diminish or increase, respectively, the quantity of nitrites and nitrates produced compared to the control signal […].
The following controls were introduced in the test: […]
In order to determine the activity of the test product the quantity of stable NO reaction products (nitrites and nitrates) is measured with the aid of the “nitric calorimetric assay” kit sold by the Boehringer company under catalogue number 1756.28. […]

On to `CNC(=N)NCCC[C@H](N)C(=O)O` [B, N^9-monomethyl-L-arginine, reference compound], for which the “% inhibition” value is reported as 100%.

As for `CNC(=N)NCCC[C@H](N)C(=O)O` [C, N^9-monomethyl-L-arginine, reference compound], the “% inhibition” value stood at 0%.
